{"source": "patent US20130034496A1", "about": "“POSITRON EMISSION TOMOGRAPHY TRACER” (UNIVERSITY OF IOWA RESEARCH FOUNDATION, priority 2011, published 2013)", "origin": "cited, not measured here", "details": "mouse; cited from earlier work", "data": [{"substance": "(S)-5,6,7,8-tetrahydrofolate [THF]", "values": [{"measurement": "LD50", "result": 10000, "unit": "mg/kg"}]}]}
